Test system: striatal dopamine release
Test: Evoked striatal dopamine release by fast-scan cyclic voltammetry in ex vivo brain slices
Set-up: species or system mouse
Conditions: levodopa pretreatment, stimulation 350 μA, 2 ms
Experimental: FIG. 4. cNdufs2^−/− mice manifest a progressive, levodopa-responsive Parkinsonism. a, Schematic diagram of the experimental protocol for Y maze test. The scoring of 2 and 3 was counted as incorrect. b, Box plots indicate the percentage of correct choices for wildtype (P30 N=8; P60 N=6) cNdufs2^−/− (P30 N=8; P60 N=6), and cNdufs2^−/− plus 6 mg/kg levodopa (P30 N=8; P60 N=6). c, Striatal dopamine release measured with fast-scan cyclic voltammetry at P30 and P60. Local electrical stimulation (350 μA, 2 ms) was used to evoke release. […] By P30, cNdufs2^−/− mice took longer (N=10-13 per group). e, Open-field traces in wildtype and cNdufs2^−/− mice at P30 and P100. f, Number of pauses during open field test in wildtype and cNdufs2^−/− mice. […] N=12-27per group. h-m, Gait analysis procedure and measurement schematics. h, Pictures of wildtype and cNdufs2^−/− mice footprints with representations of measurements of RF (Right Fore). RH (Right Hind). […]
In addition to triggering metabolic reprogramming, loss of Ndufs2 induced significant changes in the expression of genes related to axonal growth and transport (e.g., Tubb3, Uchl1, WntSa, Sema3g Nofl, Nefm, Prkca, Sema4d), synaptic transmission (e.g., Syt1/3/17, Syn2, SCNA), DA synthesis/storage (e.g., TH, VAMP2) and presynaptic regulation (e.g., Drd2, Chra4,6) (FIG. 2a, Tables 4-6). […] To determine the functional significance of these changes, DA release evoked by electrical stimulation was measured in ex vivo brain slices using fast scan cyclic voltammetry or the genetically-encoded, optical DA sensor dLight (Ref. 19; incorporated by reference in its entirety). By P30, DA release by dopaminergic axons in the dorsolateral striatum-measured with either approach—was close to zero. In contrast, somatodendritic DA release in the SN (measured with dLight) was normal (FIG. 2f-i, FIG. 14-15). […]

## N[C@@H](Cc1ccc(O)c(O)c1)C(=O)O [levodopa]
Ex vivo slices from P30 cNdufs2−/− mice
  evoked striatal DA release: increased DA release to measurable levels
Ex vivo slices from P60 cNdufs2−/− mice
  evoked striatal DA release: but not from P60 mice
Ex vivo slices from P60 cNdufs2−/− mice, listed as Levodopa
  evoked striatal DA release: but not P60 mice

From patent US20240316164A1, “ENHANCED EXPRESSION OF AN AROMATIC AMINO ACID DECARBOXYLASE (AADC) IN THE SUBSTANTIA NIGRA FOR THE TREATMENT OF PARKINSON'S DISEASE” (Northwestern University, priority 2021, published 2024)
